From US20220389377A1, “TREATMENT OF MEDICAL CONDITIONS BY STEM CELL TRANSPLANTS AND STEM CELL ACTIVATION” (Vitro Biopharma, Inc., priority 2021, published 2022)

Assays:
Details in all cases: read-out: EC50 of Substance P-induced migration, percent closure at 24 hours, sigmoidal curve fit
human NSCs = test system: human NSCs
Experimental: (§1) FIG. 1 is a microphotograph depicting cell migration using fluorescent readout and cell tracker green as a fluorescent marker of human UC-MSCs. […] The EC50 was determined as a measure of effectiveness of activating agents. […] An initial analysis of the cell free zone using Image J software was used to screen concentrations of activating agents for dose-response determination in further experiments.
(§2) The cell migration assays described above were set up as follows: One million cells/cell line were resuspended in 10 mL MSC-Gro™ serum free, quiescent medium (Vitro Biopharma Cat. No. SCO0B17) containing 5 μg/mL mitomycin C (Sigma, Cat. No. M4287) to inhibit proliferation and incubated for 2 hours at room temperature with end-to-end agitation at 7 RPM.
(§3) In some experiments, curcumin was used at 1 μM to block proliferation. Cells were centrifuged (450×g) for 7 minutes, washed with PBS and then resuspended in 1 mL MSC-Gro™ low serum, complete medium (Vitro Biopharma Cat. No. SCO0B1) and plated at 25,000 cells/well in black 96 well, TC-coated cell culture plates (ThermoScientific, Cat. No. 165305) containing cell seed-stoppers (Platypus, Cat. No. CMAUFL4) to form a cell free zone at the center of the well and incubated in 5% CO2, 1% O2, 94% N2 at 37° C. in a humidified chamber for 24 hrs. Plates used for culture of NSCs were first treated with 10 μg/mL fibronectin (Sigma, Cat. No. F0556) for 2 hours at 37° C. Following washout with PBS (3×), cell seed stoppers were inserted, NSCs were plated at 25,000/well and incubated in 5% CO2, 1% O2, 94% N2 at 37° C. in a humidified chamber for 48 hrs.
(§4) For studies of the effects of CXCR4 and MMP-9 inhibition following 24 hours of cell culture, appropriate wells were dosed with 15 μM GM6001 and 20 μM AMD3100 for 6 hours. Cells were washed once with PBS then incubated in serum free, MSC-Gro™ (Vitro Biopharma Cat. No. SCO0B17) containing 5 μM Cell Tracker Green CIVIFDA (Molecular Probes, Cat. No. C7025) at 37° C. for 30 minutes. […] A TopSeal (PerkinElmer, Cat. No. 6050195) covered the plate for live-cell imaging in a BioTek Cytation3 imaging reader. […]

[1] = test system: human pancreatic fibroblasts
Experimental: as §1, §2, §3, §4

human MSCs = test system: human MSCs
Experimental: as §1, §2, §3, §4

Compound `CSCC[C@H](NC(=O)[C@H](CC(C)C)NC(=O)CNC(=O)[C@H](Cc1ccccc1)NC(=O)[C@H](Cc1ccccc1)NC(=O)[C@H](CCC(N)=O)NC(=O)[C@H](CCC(N)=O)NC(=O)[C@@H]1CCCN1C(=O)[C@H](CCCCN)NC(=O)[C@@H]1CCCN1C(=O)[C@@H](N)CCCNC(=N)N)C(N)=O` [Substance P] has an EC50 (human NSCs) of 2.35 nM, an EC50 [1] of 2.5 nM and an EC50 (human MSCs) of 2.48 nM.
